From ChEMBL document CHEMBL1152978 (J Med Chem, 2009)

tested on: Mus musculus; assay: Toxicity in Swiss mouse assessed as occurrence of mydriasis at 30 mg/kg, ip up to 24 hrs; conditions: in vivo

Row | Compound | Activity
1 | O=C(O[C@H]1C[N+]2(CCc3ccccc3)CCC1CC2)C(O)(c1cccs1)c1cccs1.[Br-] | Toxic

tested on: Mus musculus; assay: Toxicity in Swiss mouse assessed as neurobiological state and occurrence of xerostomia at 30 mg/kg, ip up to 24 hrs; conditions: in vivo

Row | Compound | Activity
2 | O=C(O[C@H]1C[N+]2(CCc3ccccc3)CCC1CC2)C(O)(c1cccs1)c1cccs1.[Br-] | Non-toxic
3 | C[N+]12CCC(CC1)[C@@H](OC(=O)C(O)(c1cccs1)c1cccs1)C2.[Br-] | Non-toxic
4 | CCCCCCC[N+]12CCC(CC1)[C@@H](OC(=O)C(O)(c1cccs1)c1cccs1)C2.[Br-] | Non-toxic
5 | CCCCCCC[N+]12CCC(CC1)[C@@H](OC(=O)C1(O)c3ccccc3-c3ccccc31)C2.[Br-] | Non-toxic
6 | O=C(O[C@H]1C[N+]2(Cc3ccccc3)CCC1CC2)C(O)(c1cccs1)c1cccs1.[Br-] | Non-toxic
